US20240272164A1, “METHODS FOR CLASSIFYING TUMORS AND USES THEREFOR” (THE UNIVERSITY OF QUEENSLAND, priority 2015, published 2024)

What was measured:
SKBR3 cells [1] = assay: Immune-dependent cytotoxicity (ADCC) assay with PBMC effector cells, SKBR3 target cells; format: cell-based, human
Method: (§1) Tumor cells were cultured as described above.

HCC1569 cells = assay: Immune-dependent cytotoxicity (ADCC) assay with PBMC effector cells, HCC1569 target cells; format: cell-based, human
Method: as §1

MDA-MB-468 cells = format: cell-based, human; conditions: cell line MDA-MB-468, Table 2
Method: as §1

SKBR3 cells [2] = assay: Immune-dependent cytotoxicity assay with CD56-enriched or CD56-depleted PBMCs; format: cell-based, human; conditions: FIG. 6A
Text: To better understand the dynamin inhibition-mediated increase in the sensitivities of breast cancer cell line to the mAb-mediated immune-dependent cytotoxicity, it was important to identify the PBMC cell subset which contributed to this effect in the in vitro assay. NK cells (Chung et al., 2014; Schnueriger et al., 2011), which express FcγRIII with high binding affinity for IgG1 were chosen to be examined in the context of mAb-mediated immune-dependent cytotoxicity assays by using CD56-depleted or enriched PBMCs a effector cells as opposed to unsorted PBMCs. […] Moreover, a comparison of the efficacy of mAbs which bind to same antigen, and display distinct IgG domains (IgG1 and IgG2) was made.
Approximately 4.0×10^7 PBMCs were isolated as described and concentrated by centrifugation at 1000×g for 10 min and resuspended into medium as described above. PBMCs were stained with anti-human CD56 conjugated Allophycocyanin (APC) antibody (Affymetrix, eBiosciences; Santa Clara, USA) in accordance with the manufacturer's instructions (Affymetrix, eBiosciences). […] Cells were sorted using Beckman and Coulter Moflo® Astrios cell sorter. Approximately 4.0×10^7 unstained cells were maintained separately. […] The same was conducted for conditions containing CD56-cell populations. […] Tubes were incubated at 37° C. for 4-hours.

[3] = tested on: HER2 positive breast cancer; conditions: clinical, literature (Narayan et al., 2009; Wolff et al., 2007); cited from earlier work
BT474 cells = assay: Immune-dependent cytotoxicity (ADCC) assay with PBMC effector cells, BT474 target cells
MDA-MB-231 cells = assay: Immune-dependent cytotoxicity (ADCC) assay with PBMC effector cells, MDA-MB-231 target cells

With “Trastuzumab: therapeutic mAb (humanized) which binds the extracellular domain of HER2” as the substance, how does the “Sensitivity to Trastuzumab mediated cytotoxicity in the presence of PBMCs (specific target cell death)” value (SKBR3 cells [1]; SKBR3 cells + PBMC, compared with un-treated controls, FIG. 2A) read?
The value was “highly and significantly sensitive”.

And the “Therapeutic antibody Sensitive/Resistant” value (SKBR3 cells [1]; cell line SKBR3, Table 2)?
Its value is “Sensitive”.

What about the “Sensitivity to Trastuzumab-mediated cytotoxicity (specific target cell death)” value (HCC1569 cells; HCC1569 cells + PBMC, FIG. 2C) of the same substance?
Its value is “insensitive”.

What about the “Therapeutic antibody Sensitive/Resistant” value (HCC1569 cells; cell line HCC1569, Table 2) of the same substance?
Its value is “Resistant”.

What about the “Therapeutic antibody Sensitive/Resistant” value (MDA-MB-468 cells) of the same substance?
The value was “Resistant”.

What about the “Specific cell death of SKBR3 cells treated with Trastuzumab” value (SKBR3 cells [2]; CD56-enriched fractionated PBMC population, vs untreated controls, Trastuzumab 60 μg/mL) of the same substance?
Its value is “increased in comparison to untreated controls”.

What about the “SKBR3 cell death with Trastuzumab” value (SKBR3 cells [2]; CD56 depleted PBMCs) of the same substance?
The value was “negligible”.

What about the “Patients with HER2 positive breast cancer who benefit from Trastuzumab” value [3] of the same substance?
Its value is “less than 35%”.

And the “Sensitivity to Trastuzumab-mediated immune-dependent cytotoxicity” value (BT474 cells; BT474 cells + PBMC, FIG. 2B)?
The value was “sensitive”.

And the “Therapeutic antibody Sensitive/Resistant” value (BT474 cells; cell line BT474, Table 2)?
The value was “Sensitive”.

What about the “Sensitivity to Trastuzumab treatment (immune dependent cytotoxicity assay)” value (MDA-MB-231 cells; MDA-MB-231 cells (HER2 negative control) + PBMC, FIG. 2D) of the same substance?
Its value is “considered insensitive”.

What about the “Therapeutic antibody Sensitive/Resistant” value (MDA-MB-231 cells; cell line MDA-MB-231, Table 2) of the same substance?
The value was “Resistant”.
